Legend:
[1] = biological target: Mcl-1 binding to Bax and Bim (Homo sapiens, UniProt Q07820); assay: GST pull-down, GST-Mcl-1 with Bax and Bim from cell lysates; settings: HEK293T and A549 cell lysates; 0, 50, 100 μM BH3-M6 or 100 μM TPC; tested form: diammonium salt (as drawn, CO2NH4)
Text: FIG. 2 is a series of images illustrating that BH3-M6, but not TPC, inhibits the binding of anti-apoptotic proteins to pro-apoptotic proteins in vitro. (A) a series of graphs illustrating that BH3-M6 blocks the binding of Bak BH3 α-helix to Bcl-XL (left) or Bim BH3 α-helix to Mcl-1 (right) as measured by fluorescence polarization assay, black circles: BH3-M6, open triangles: TPC. (B) BH3-M6 inhibits the interaction of Bcl-XL or Mcl-1 with Bax and Bim as measured by GST pull-down assay. Purified GST, GST-Bcl-XL and GST-Mcl-1 fusion proteins immobilized on glutathione-Sepharose beads were incubated for 1 h with 0, 50 and 100 μM BH3-M6 or 100 μM TPC, followed by addition of cell extracts from HEK293T or A549 cells for 1 h. Proteins associated with beads were eluted and analyzed by Western blotting with Bax and Bim antibodies.
Whole cell lysates of HEK293T and A549 cells were prepared using NP-40 lysis buffer (see above). […]
The inventors next determined whether in lysates from HEK293T or A549 cells, BH3-M6 was able to disrupt the interaction between full-length Bax and Bim to full-length Bcl-XL and Mcl-1, respectively, in GST pull-down assays.

Amino acid sequences for entries named in this document (tags omitted).
UniProt Q07820, whole entry: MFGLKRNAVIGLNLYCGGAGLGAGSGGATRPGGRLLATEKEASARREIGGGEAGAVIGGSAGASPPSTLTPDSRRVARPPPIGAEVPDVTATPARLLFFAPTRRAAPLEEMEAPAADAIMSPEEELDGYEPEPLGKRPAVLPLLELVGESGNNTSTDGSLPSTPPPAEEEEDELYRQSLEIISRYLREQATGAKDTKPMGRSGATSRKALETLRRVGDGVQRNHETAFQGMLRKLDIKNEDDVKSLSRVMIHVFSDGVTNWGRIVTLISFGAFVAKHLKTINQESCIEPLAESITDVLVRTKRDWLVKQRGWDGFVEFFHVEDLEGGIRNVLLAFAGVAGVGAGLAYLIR

[2] = biological target: endogenous Bak with endogenous Mcl-1 (Homo sapiens, UniProt Q07820); assay: Co-immunoprecipitation from H1299 cells; settings: H1299, 0-100 μM BH3-M6 or 100 μM TPC, 24 h; tested form: diammonium salt (as drawn, CO2NH4)
Method: FIG. 4 is a series of images illustrating BH3-M6 inhibits the interaction between Bcl-XL, Bcl-2, and Mcl-1 with Bim, Bak or Bax in intact cells. (A) Co-immunoprecipitation from HEK293T cells. HEK293T cells were co-transfected with HA-Bcl-XL and Flag-BimEL for 18 h. Cells were exposed to 0, 25, 50, and 100 μM of BH3-M6 or 100 μM of TPC for 2 h at 37° C., lysed and subjected to immunoprecipitation with anti-FLAG-M2 beads. The resulting immune complexes, as well as total lysates, were analyzed by Western blotting with the indicated antibodies. (B) Co-immunoprecipitation from MDA-MB-468 cells expressing Bcl-XL-IRES-BimEL, Bcl-2-IRES-BimEL, and Mcl-1-IRES-BimEL. […] The resulting immune complexes were analyzed by Western blotting with Bim, Bcl-XL, Bcl-2, and Mcl-1 antibodies. […] The resulting immune complexes were analyzed by Western blotting with the indicated antibodies. […] The resulting immune complexes were analyzed by Western blotting with the antibodies indicated on the right. […]
Next the inventors determined whether BH3-M6 could disrupt these interactions of the corresponding endogenous proteins. […] Finally, a mechanism by which freed Bax is believed to induce apoptosis is through a conformational change, which can be detected by a specific antibody. […]

disruption of the binding of Mcl-1 to Bax and Bim [1]: disrupted | inhibition of interaction of endogenous Bak with endogenous Mcl-1 [2]: dose-dependent inhibition
SMILES: CC(C)Cc1cc(-c2ccc(-c3ccc(CCC(=O)O)cc3CC(C)C)cc2Cc2ccccc2)ccc1OCC(=O)O
